The experiment concerns the target T1, human IL-1 type 1 receptor (IL-1R1) (human, UniProt P14778 18-336, limits assumed).
T1 construct: SPR reagent; also called IL-1RI; interleukin-1 type I receptor
T1 sequence (looked up): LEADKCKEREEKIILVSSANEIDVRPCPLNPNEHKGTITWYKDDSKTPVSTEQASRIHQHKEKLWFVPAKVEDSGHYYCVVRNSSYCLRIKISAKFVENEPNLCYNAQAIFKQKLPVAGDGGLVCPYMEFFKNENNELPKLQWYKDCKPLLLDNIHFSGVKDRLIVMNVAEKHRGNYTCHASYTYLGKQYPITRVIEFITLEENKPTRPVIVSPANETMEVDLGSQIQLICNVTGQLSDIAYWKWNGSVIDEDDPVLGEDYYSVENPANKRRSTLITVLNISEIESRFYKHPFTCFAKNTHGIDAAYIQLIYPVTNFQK
Briefly: surface plasmon resonance. (In SPR one partner is held on a chip, and binding of the other changes the refractive index at the surface.)

Data on one molecule can be found in US20220339099A1 (published 2022).

B1: IL-1Ra (comparator test ligand of Table 24, 'an IL-1Ra') (ligand)
chain: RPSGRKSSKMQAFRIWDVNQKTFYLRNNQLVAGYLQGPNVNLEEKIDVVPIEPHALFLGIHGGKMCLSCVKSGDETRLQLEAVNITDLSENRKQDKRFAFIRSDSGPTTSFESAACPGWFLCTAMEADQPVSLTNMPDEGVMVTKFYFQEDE
Molecule B1 had a Kd of 0.05 nM, a koff of 3.91e-05 s⁻¹ and a kon of 854000 M⁻¹ s⁻¹.

As usually defined, the Kd is the concentration at which binding is half-saturated. The term koff denotes a measure of how fast the partners let go of each other. Lower therefore signals slow dissociation. The kon is the rate constant with which the complex forms. A low value points to slow association.
